# Measured properties of organic chemicals

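The numbers are reported measurements, compiled and curated for the OPERA QSAR suite. One number stands for a compound and property, with no spread given. How each value was measured is not recorded, so precision varies. The measured form (salt, isomer or mixture) is not always the one drawn. Some upstream entries may be estimates or bounds without being marked so.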

The melting point is given in degrees Celsius. The boiling point refers to atmospheric pressure (760 mmHg), by the definition of the set. logP is the log10 of the octanol-water partition coefficient; higher is more lipophilic. Solubility in water is on a log10 molar scale (set defined at 25 °C). Vapor pressures (log10 mmHg) refer to near room temperature, 15 to 30 °C; higher is more volatile. The unbound fraction in human plasma runs from 0 (all bound) to 1 (all free). Clint is human hepatic intrinsic clearance in µL/min per million cells; 0 means that no clearance was seen. "–" marks a cell with nothing listed here.

mp (°C),boiling point (°C),log Kow,log S (log10 mol/L),vapor pressure (log10 mmHg),fraction unbound,intrinsic clearance (µL/min/10^6 cells),compound,name
–,–,–,–,–,0.0501,173,COc1cc(CCC(=O)CC(=O)CCc2ccc(O)c(OC)c2)ccc1O,Tetrahydrocurcumin
-66.1,–,–,–,2.464,–,–,CC1(C)CO1,"Oxirane, 2,2-dimethyl-"
–,–,2.915,-5.123,-5.502,–,–,O=C(CCS)OCC(COC(=O)CCS)(COC(=O)CCS)COC(=O)CCS,–
-21.3,260.5,–,-3.001,–,–,–,C=CC(C)(C#N)Cc1ccccc1 (centres undefined),2-Benzyl-2-methyl-3-butenitrile
–,360,–,-2.877,–,–,–,O=P(c1ccccc1)(c1ccccc1)c1ccccc1,Triphenylphosphine oxide
86.9,–,–,-6.492,-5.736,–,–,O=C=Nc1ccc(OP(=S)(Oc2ccc(N=C=O)cc2)Oc2ccc(N=C=O)cc2)cc1,Tris(4-isocyanatophenyl) thiophosphate
–,–,–,-2.045,-2.043,–,–,CC/C=C\CC1=C(C)CCC1=O,Jasmone
–,–,1.29,–,1.72,–,–,CCCC1CO1 (centres undefined),"Oxirane, 2-propyl-"
175,–,6.39,-9.22,-10.96,–,–,CCOC(=O)OCCOc1cc(O)c2c(c1N)C(=O)c1ccccc1C2=O,–
–,–,–,–,–,0.0188,118,Cc1ccc(C(=O)c2ccccc2)cc1,4-methylbenzophenone
-1.8,–,5.4,–,-4.79,–,–,CCOC(=O)CC(NC1CCC(CC2CCC(NC(CC(=O)OCC)C(=O)OCC)CC2)CC1)C(=O)OCC (centres undefined),Desmophen LS 2973
59,243,–,–,–,–,–,Cc1cc(C)c(Cl)c(C)c1Cl,"2,4-DICHLOROMESITYLENE"
–,–,2.8,-2.303,–,–,–,C#CC(C)(O)CCC=C(C)CC (centres undefined),"6-Nonen-1-yn-3-ol, 3,7-dimethyl-"
–,–,–,-2.42,-1.835,–,–,CC(=O)OC1(C)CCOC(CC(C)C)C1 (centres undefined),–
–,–,1.18,–,-0.474,–,–,NN1CC2CCCC2C1 (centres undefined),Hexahydrocyclopenta[c]pyrrol-2(1H)-amine
–,–,0.8,–,-0.648,–,–,CC(=O)OCC(C)OC(C)=O (centres undefined),Propylene glycol diacetate
–,–,1.294,-4.821,–,–,–,CCCCC(CC)COCCCNS(=O)(=O)c1ccc2c(c1)-c1nc-2nc2[n-]c(nc3nc(nc4[n-]c(n1)c1ccc(S(=O)(=O)NCCCOCC(CC)CCCC)cc41)-c1ccccc1-3)c1cccc(S(=O)(=O)NCCCOCC(CC)CCCC)c21.[Cu+2] (centres undefined),–
–,–,–,-4.467,-7.347,–,–,CCCCOCC(C)OC(=O)COc1nc(F)c(Cl)c(N)c1Cl (centres undefined),–
-41.8,–,–,-4.68,–,–,–,CC1=CCC(C(C)CC2CCCC2=O)CC1 (centres undefined),2-(2-(4-Methyl-3-cyclohexen-1-yl)propyl)cyclopentanone
-132.5,–,–,–,-2.119,–,–,CCCCN(CCCC)C[Si](OCC)(OCC)OCC,N-Butyl-N-[(triethoxysilyl)methyl]butan-1-amine
390,–,4,-6.98,-7.466,–,–,CCCCN(CCCC)C(=O)c1ccc(C2=C3C(=O)NC(c4ccc(Cl)cc4)=C3C(=O)N2)cc1,–
53.5,322,–,–,–,–,–,Cl/C(=C\c1ccccc1)c1ccccc1,"1,1'-[(Z)-1-Chloro-1,2-ethenediyl]dibenzene"
48.75,–,–,-2.664,-2.593,–,–,COc1cccc(C(=O)Cl)c1C,"Benzoyl chloride, 3-methoxy-2-methyl-"
140,–,–,–,-5.805,–,–,COc1cccc(C)c1C(=O)O,2-Methoxy-6-methylbenzoic acid
–,–,2.7,-4.931,–,0.5,–,CCOC(=O)[C@H](CCc1ccccc1)N[C@@H](C)C(=O)N1Cc2cc(OC)c(OC)cc2C[C@H]1C(=O)O,Moexipril
–,–,1.15,–,-1.648,–,–,C=C(COC(C)=O)COC(C)=O,"2-Methylenepropane-1,3-diyl diacetate"
-73,–,3.13,-2.475,-1.604,–,–,CC(C)(C)CCCCC(=O)O,Neononanoic acid

A selection of 4 entries from above:

| compound | name | mp (°C) | boiling point (°C) | log Kow | log S (log10 mol/L) | vapor pressure (log10 mmHg) | fraction unbound | intrinsic clearance (µL/min/10^6 cells) |
|---|---|---|---|---|---|---|---|---|
| CCOC(=O)OCCOc1cc(O)c2c(c1N)C(=O)c1ccccc1C2=O | – | 175 | – | 6.39 | -9.22 | -10.96 | – | – |
| COc1cccc(C)c1C(=O)O | 2-Methoxy-6-methylbenzoic acid | 140 | – | – | – | -5.805 | – | – |
| Cc1cc(C)c(Cl)c(C)c1Cl | 2,4-DICHLOROMESITYLENE | 59 | 243 | – | – | – | – | – |
| Cl/C(=C\c1ccccc1)c1ccccc1 | 1,1'-[(Z)-1-Chloro-1,2-ethenediyl]dibenzene | 53.5 | 322 | – | – | – | – | – |

Values as listed in the OPERA 2.9 repository of K. Mansouri.